By UniProt entry, the sequences of proteins in these tests, tags left out. Where a name states a change or a piece, a line headed by the entry shows the natural chain unless it says otherwise.
UniProt P41145: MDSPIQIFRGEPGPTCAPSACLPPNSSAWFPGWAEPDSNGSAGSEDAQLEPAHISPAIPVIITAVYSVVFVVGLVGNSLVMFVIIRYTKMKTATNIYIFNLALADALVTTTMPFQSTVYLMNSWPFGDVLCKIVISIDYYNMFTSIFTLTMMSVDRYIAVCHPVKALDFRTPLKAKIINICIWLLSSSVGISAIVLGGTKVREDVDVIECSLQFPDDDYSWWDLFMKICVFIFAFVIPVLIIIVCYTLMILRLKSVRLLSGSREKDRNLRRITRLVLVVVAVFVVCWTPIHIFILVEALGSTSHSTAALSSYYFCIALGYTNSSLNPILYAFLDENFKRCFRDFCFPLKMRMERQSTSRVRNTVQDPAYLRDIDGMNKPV

In US20250346584A1, “NOVEL KAPPA OPIOID LIGANDS” (The Scripps Research Institute, priority 2012, published 2025):

Target: kappa opioid receptor (OPRK1) (Homo sapiens (Human), UniProt P41145)
Test: OPRK1 antagonist assay (b-arrestin-2-TEV / b-lactamase reporter cell line, EC80 U-50488 challenge)
Assay type: cell-based
Conditions: read-out: IC50 nM (% inhib if other than 50%); antagonist mode vs EC80 U-50488; NA = not active at concentrations up to 10 μM

IC50: 11 nM
Structure (SMILES): Cc1ccc2nc(N3CCC(NC4CCCCC4O)CC3)c(-c3nc(C)no3)cc2c1 (stereo not shown) [compound 248]
